The chains behind the UniProt entries cited, without tags or fusion partners. Where a name states a change or a piece, a line headed by the entry shows the natural chain unless it says otherwise.
UniProt P33033: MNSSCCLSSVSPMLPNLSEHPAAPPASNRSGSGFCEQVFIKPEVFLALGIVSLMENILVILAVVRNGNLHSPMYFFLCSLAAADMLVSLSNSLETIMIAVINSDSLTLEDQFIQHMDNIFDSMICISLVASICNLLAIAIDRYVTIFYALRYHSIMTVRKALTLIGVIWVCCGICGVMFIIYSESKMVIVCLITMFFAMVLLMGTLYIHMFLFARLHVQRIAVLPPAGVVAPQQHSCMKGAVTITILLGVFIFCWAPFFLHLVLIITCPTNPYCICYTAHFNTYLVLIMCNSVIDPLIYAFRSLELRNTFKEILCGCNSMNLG
UniProt P56450, whole entry: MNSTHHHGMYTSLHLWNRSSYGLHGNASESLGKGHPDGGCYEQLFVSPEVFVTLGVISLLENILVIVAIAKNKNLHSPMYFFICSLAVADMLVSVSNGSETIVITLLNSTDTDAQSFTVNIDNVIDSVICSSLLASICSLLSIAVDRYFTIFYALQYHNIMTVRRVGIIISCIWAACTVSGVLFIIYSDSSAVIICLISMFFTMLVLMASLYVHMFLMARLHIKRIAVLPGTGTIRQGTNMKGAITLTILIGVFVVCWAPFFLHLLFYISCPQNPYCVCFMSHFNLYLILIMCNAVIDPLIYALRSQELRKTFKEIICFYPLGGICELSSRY
UniProt Q01727: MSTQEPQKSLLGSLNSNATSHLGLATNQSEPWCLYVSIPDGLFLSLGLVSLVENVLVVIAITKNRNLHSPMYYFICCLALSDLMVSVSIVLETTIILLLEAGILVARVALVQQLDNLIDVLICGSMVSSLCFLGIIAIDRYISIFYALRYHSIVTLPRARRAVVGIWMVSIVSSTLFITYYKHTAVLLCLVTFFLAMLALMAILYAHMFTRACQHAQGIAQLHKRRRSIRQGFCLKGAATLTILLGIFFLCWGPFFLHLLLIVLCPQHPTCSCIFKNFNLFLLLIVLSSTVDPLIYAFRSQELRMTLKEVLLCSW

According to publication PMC10631449 (Journal of medicinal chemistry, 2023):

Key:
[1] = biological target: mMC3R (Mus musculus, UniProt P33033); details: hek293 cells
[2] = biological target: mMC4R (Mus musculus, UniProt P56450); details: for pA2 mMC4R: hek293 cells
[3] = biological target: mMC1R (Mus musculus, UniProt Q01727); details: antagonist potency

SMILES | pA2 mMC3R [1] | pA2 mMC4R [2] | selectivity for the mMC4R over the other receptors [2] | selectivity for the mMC1R over the mMC3R, mMC4R, and mMC5R [3]
CC(=O)N[C@H](Cc1ccc(I)cc1)C(=O)N[C@H](CCCCN)C(=O)N[C@@H](Cc1ccc2ccccc2c1)C(=O)N[C@@H](CCCNC(=N)N)C(N)=O [Peptide 9, Ac-DPhe(pI)-DLys-Nal(2’)-Arg-NH2] | <5.5 | <5.5 |  | 
CC(=O)N[C@H](Cc1ccc(I)cc1)C(=O)N[C@@H](Cc1c[nH]cn1)C(=O)N[C@@H](Cc1ccc2ccccc2c1)C(=O)N[C@@H](CCCNC(=N)N)C(N)=O [Peptide 2, Ac-DPhe(pI)-His-Nal(2’)-Arg-NH2] |  | 7.0±0.2 |  | 
CC(=O)N[C@H](Cc1ccc(I)cc1)C(=O)N[C@@H](CCCNC(N)=O)C(=O)N[C@@H](Cc1ccc2ccccc2c1)C(=O)N[C@@H](CCCNC(=N)N)C(N)=O [Peptide 10, Ac-DPhe(pI)-Cit-Nal(2’)-Arg-NH2] |  | 6.5±0.3 |  | 
CC(=O)N[C@H](Cc1ccc(I)cc1)C(=O)N[C@@H](CCCCN)C(=O)N[C@@H](Cc1ccc2ccccc2c1)C(=O)N[C@@H](CCCNC(=N)N)C(N)=O [Peptide 3, Ac-DPhe(pI)-Lys-Nal(2’)-Arg-NH2] |  | 8.1±0.1 | at least 10 fold | 
CC(=O)N[C@H](Cc1ccc(I)cc1)C(=O)N[C@@H](CCCNC(=N)N)C(=O)N[C@@H](Cc1ccc2ccccc2c1)C(=O)N[C@@H](CCCNC(N)=O)C(N)=O [Peptide 20, Ac-DPhe(pI)-Arg-Nal(2’)-Cit-NH2] | 6.8±0.3 | 8.5±0.2 | at least 10 fold | 
CC(=O)N[C@H](Cc1ccc(I)cc1)C(=O)N[C@H](CCCNC(=N)N)C(=O)N[C@@H](Cc1ccc2ccccc2c1)C(=O)N[C@@H](CCCNC(=N)N)C(N)=O [Peptide 8, Ac-DPhe(pI)-DArg-Nal(2’)-Arg-NH2] | <5.5 |  |  | 
CC(=O)N[C@H](Cc1ccc(I)cc1)C(=O)N[C@@H](CCCNC(=N)N)C(=O)N[C@@H](Cc1ccc2ccccc2c1)C(=O)N[C@@H](CCN)C(N)=O [Peptide 15, Ac-DPhe(pI)-Arg-Nal(2’)-Dab-NH2] | 7.8±0.1 | 8.8±0.1 | at least 10 fold | 
CC(=O)N[C@H](Cc1ccc(I)cc1)C(=O)N[C@@H](CCC(=O)O)C(=O)N[C@@H](Cc1ccc2ccccc2c1)C(=O)N[C@@H](CCCNC(=N)N)C(N)=O [Peptide 11, Ac-DPhe(pI)-Glu-Nal(2’)-Arg-NH2] | <5.5 | <5.5 |  | 
CC(=O)N[C@H](Cc1ccc(I)cc1)C(=O)N[C@@H](CCCNC(=N)N)C(=O)N[C@@H](Cc1ccc2ccccc2c1)C(=O)N[C@@H](Cc1c[nH]cn1)C(N)=O [Peptide 12, Ac-DPhe(pI)-Arg-Nal(2’)-His-NH2] | 7.0±0.1 | 7.8±0.3 |  | 
CC(=O)N[C@H](Cc1ccc(I)cc1)C(=O)N[C@@H](CCCNC(=N)N)C(=O)N[C@@H](Cc1ccc2ccccc2c1)C(=O)N[C@@H](CN)C(N)=O [Peptide 16, Ac-DPhe(pI)-Arg-Nal(2’)-Dap-NH2] | 7.3±0.4 | 8.1±0.1 |  | 
CC(=O)N[C@H](Cc1ccc(I)cc1)C(=O)N[C@@H](CCCNC(=N)N)C(=O)N[C@@H](Cc1ccc2ccccc2c1)C(=O)N[C@@H](CCCNC(=N)N)C(N)=O [Peptide 1] |  |  | at least 10 fold | 
CC(=O)N[C@H](Cc1ccc(I)cc1)C(=O)N[C@@H](CCCNC(=N)N)C(=O)N[C@@H](Cc1ccc2ccccc2c1)C(=O)N[C@@H](CCCCNC(=N)N)C(N)=O [Peptide 17, Ac-DPhe(pI)-Arg-Nal(2’)-hArg-NH2] | 7.7±0.5 | 8.2±0.2 |  | 
CC(=O)N[C@H](Cc1ccc(I)cc1)C(=O)N[C@@H](CN)C(=O)N[C@@H](Cc1ccc2ccccc2c1)C(=O)N[C@@H](CCCNC(=N)N)C(N)=O [Peptide 6, Ac-DPhe(pI)-Dap-Nal(2’)-Arg-NH2] | <5.5 | 5.8±0.2 |  | at least 10 fold
CC(=O)N[C@H](Cc1ccc(I)cc1)C(=O)N[C@@H](CCCN)C(=O)N[C@@H](Cc1ccc2ccccc2c1)C(=O)N[C@@H](CCCNC(=N)N)C(N)=O [Peptide 4, Ac-DPhe(pI)-Orn-Nal(2’)-Arg-NH2] | <5.5 | 7.0±0.2 |  | 
